{
  "source": "patent US20210386704A1",
  "about": "“MDMA RESPONSE PREDICTION” (Universitätsspital Basel, priority 2020, published 2021)",
  "assay": "Pooled analysis of ten placebo-controlled crossover studies: MDMA plasma concentration (AUC 0-6 h)",
  "conditions": "oral 75 or 125 mg",
  "data": [
    {"smiles": "CNC(C)Cc1ccc2c(c1)OCO2", "note": "(racemic) [MDMA, (±)3,4-methylenedioxymethamphetamine]", "values": [
      {"measurement": "MDMA plasma AUC over 6 hours, relation to dose of MDMA", "setting": "unadjusted linear mixed effects model (FIG. 1)", "result": "strongly and highly significantly correlated with the dose of MDMA"},
      {"measurement": "MDMA plasma AUC over 6 hours, relation to CYP2D6 activity (genetic)", "setting": "unadjusted model (FIG. 1)", "result": "inversely correlated with the CYP2D6 activity"},
      {"measurement": "MDMA plasma AUC over 6 hours, relation to body weight", "setting": "unadjusted model (FIG. 1)", "result": "strongly and highly significantly inversely correlated with the body weight"}
    ]}
  ]
}
